From ChEMBL document CHEMBL6071213, “Bicyclic Inhibitors of Branched-Chain α-Keto Acid Dehydrogenase Kinase (BDK) with In Vivo Activity” (ACS Med Chem Lett, 2024)
Active and inactive are the calls of the source.

Columns and labels:
Type in all cases: functional, organism-based
Conditions in all cases: time lower 90.0 min, time upper […]
[1] = target: Branched-chain alpha-ketoacid dehydrogenase kinase (Mus musculus) (UniProt O55028); test: In vivo induction of BCKDC activity in mouse liver assessed as increase in BCKDC level at 10 mg/kg,ip administration measured at 90 to 180 mins in presence of [14C]-alpha-ketoisovaleric acid by liquid scintillation counter analysis
[2] = target: Branched-chain alpha-ketoacid dehydrogenase kinase (Mus musculus) (UniProt O55028); test: In vivo induction of BCKDC activity in mouse kidney assessed as increase in BCKDC level at 10 mg/kg,ip administration measured at 90 to 180 mins in presence of [14C]-alpha-ketoisovaleric acid by liquid scintillation counter analysis
[3] = target: Branched-chain alpha-ketoacid dehydrogenase kinase (Mus musculus) (UniProt O55028); test: In vivo induction of BCKDC activity in mouse heart assessed as increase in BCKDC level at 10 mg/kg,ip administration measured at 90 to 180 mins in presence of [14C]-alpha-ketoisovaleric acid by liquid scintillation counter analysis

Measured: Activity

O=C(Nc1nc(-c2ccc(F)cc2F)cs1)[C@H]1[C@H](C(=O)O)[C@H]2C=C[C@@H]1C2
active: all assays above
